# Experimental data reported in PubChem BioAssay AID540364 (The Scripps Research Institute Molecular Screening Center, 2011).
# Only a part is listed here, and it is no random draw. Active and inactive are the calls of the source.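 How the source made its calls: active means activation above the average of all compounds screened plus 3 SD, cutoff fixed separately per campaign (cut at about 7.5% in these data); inactive means the rest.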
# Assay: GAA850 frataxin promoter reporter upregulation – cell-based, luciferase luminescence, HEK293 lucGAA850, primary screen (AID 540364);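 further: 0% = DMSO wells and 100% = 10 µM SAHA wells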
# Conditions: HEK293 lucGAA850 FXN promoter luciferase reporter, 24 h; at 6 µM; stronger effect = higher value; percent of 10 µM SAHA response
row,SMILES,activation
1,CN1CCC(Nc2ccc(Cl)cc2)CC1,inactive: 1.71%
2,CCC(CO)(C(=O)OC1CN2CCC1CC2)c1ccccc1 (stereo not given),inactive: 2%
3,COc1cccc(C(=O)N(c2cc(C)cc(C)c2)C2CCN(C(=O)OC(C)(C)C)CC2)c1,inactive: -0.59%
4,COc1cc(OC)cc(C(=O)NCC2(N3CCOCC3)CCCCC2)c1,inactive: 0.27%
5,CCCOc1ccc(C(=O)NCC2(N(C)C)CCCCC2)cc1,inactive: -0.99%
6,O=C(O)C1(Nc2ccccc2)CCN(Cc2ccccc2)CC1,inactive: 2.76%
7,CC(C)(C)OC(=O)N1CCC(Nc2ccccc2)CC1,inactive: 5.28%
8,CN1CCC(Nc2ccc(F)c(Cl)c2)CC1,inactive: -0.28%
9,CCOc1ncccc1C(=O)NCC1(N2CCOCC2)CCCCC1,inactive: 2.45%
10,Cn1c(=O)[nH]cc(N(CCCl)CCCl)c1=O,inactive: -1.19%
11,CN(C)c1ccc(C(=O)NCC2(N3CCCCC3)CCCCC2)cc1,inactive: 2.37%
12,O=C(NCC1(N2CCCCC2)CCCCC1)c1ccco1,inactive: -0.02%
13,CCN1CCC(Nc2cccc(F)c2)CC1,inactive: 1.56%
14,Cc1ccccc1NC1(C#N)CCN(Cc2ccccc2)CC1,inactive: -1.76%
15,Cc1ccc(NC2(C#N)CCN(Cc3ccccc3)CC2)cc1,inactive: 0.8%
16,Fc1ccccc1NC1CCN(Cc2ccccc2)CC1,inactive: -1.36%
17,Cc1ccc(C(=O)NCC2(N3CCCCC3)CCCCC2)o1,inactive: 1.49%
18,COc1cc(OC)cc(C(=O)NCC2(N3CCCCC3)CCCCC2)c1,inactive: 0.83%
19,CC(=O)N(c1ccccc1)C1CCNCC1,inactive: 2.17%
20,CCCN1CCC(Nc2cc(OC)cc(OC)c2)CC1,inactive: 0.61%
21,Cc1cc(N(CCCl)CCCl)ccc1C=O,inactive: -3.62%
22,c1ccc(CN2CCC(Nc3ccccc3)CC2)cc1,inactive: -0.88%
23,CN(C)C1(CNC(=O)c2cccc(C#N)c2)CCCCC1,inactive: 1.2%
24,CC(C)(C)OC(=O)N1CCC(N(C(=O)c2ccccc2)c2ccc(Cl)cc2)CC1,inactive: -1.8%
25,N#Cc1ccc(C(=O)NCC2(N3CCCCC3)CCCCC2)cc1,inactive: 2.17%

row,SMILES,activation
1,O=C(OC1CN2CCC1CC2)C1c2ccccc2C=Cc2ccccc21 (stereo not given),inactive: -0.99%
2,N/C(=N\O)c1c(N)no[n+]1[O-],inactive: -1.36%
3,CCOC(=O)N1CCC(Nc2ccc(C)cc2)CC1,inactive: 1.81%
4,COc1ccc(C(=O)NCC2(N3CCOCC3)CCCCC2)cc1OC,inactive: 3.09%
5,O=C(NCC1(N2CCOCC2)CCCCC1)c1cc(Br)ccc1Cl,inactive: -1.61%
6,COc1cc(C(=O)NCC2(N3CCOCC3)CCCCC2)cc(OC)c1C,inactive: 0.92%
7,CCCOc1ccc(C(=O)NCC2(N(C)C)CCCCC2)cc1OC,inactive: 0.71%
8,Cc1ccc(C(=O)NCC2(N(C)C)CCCCC2)o1,inactive: 1.42%
9,O=C(NCC1(N2CCCCC2)CCCCC1)c1cncc(Br)c1,inactive: 1.99%
10,CN1CCC(Nc2cccc(F)c2)CC1,inactive: 3.56%
11,O=C(NCC1(N2CCOCC2)CCCCC1)c1cc(F)c(F)cc1Cl,inactive: 0%
12,COc1cc(OC)c(C(=O)NCC2(N(C)C)CCCCC2)cc1OC,inactive: 0.63%
13,CN(C)c1cccc(C(=O)NCC2(N3CCCCC3)CCCCC2)c1,inactive: 2.76%
14,COc1ccc(CN(CCCl)CCCl)cc1Cl,inactive: 2.52%
15,CC(C)c1ccc(NC2CCN(C(=O)OC(C)(C)C)CC2)cc1,inactive: 1.89%
16,COc1ccc(NC2CCN(C(=O)OC(C)(C)C)CC2)cc1,inactive: -0.28%
17,CC(C)c1ccc(C(=O)NCC2(N3CCOCC3)CCCCC2)cc1,inactive: 1.86%
18,CN1CCN(CCOC(=O)C(O)(c2ccccc2)c2ccccc2)CC1,inactive: 0.25%
19,O=C(NCC1(N2CCOCC2)CCCCC1)c1cc(=O)[nH]c2ccccc12,inactive: 1.45%
20,COc1cc(C(=O)NCC2(N3CCCCC3)CCCCC2)ccc1OC(F)F,inactive: 0.78%
21,O=C(NCC1(N2CCCCC2)CCCCC1)c1cccc(C(F)(F)F)c1,inactive: -0.29%
22,O=C(NCC1(N2CCCCC2)CCCCC1)c1cccc([N+](=O)[O-])c1,inactive: 1.8%
23,CSc1ccc(C(=O)NCC2(N3CCOCC3)CCCCC2)cc1,inactive: 1.33%
24,N#CC1(Nc2ccccc2)CCN(CCc2ccccc2)CC1,inactive: -0.61%
25,CCN1CCC(Nc2ccc(Cl)cc2)CC1,inactive: 0.48%

row,SMILES,activation
1,O=C(NCC1(N2CCCCC2)CCCCC1)c1ccc(OC(F)F)cc1,inactive: 2.34%
2,COc1cc(C(=O)NCC2(N(C)C)CCCCC2)ccc1OC(F)F,inactive: 0.07%
3,CCOC(=O)N1CCC(Nc2cccc(C)c2)CC1,inactive: -0.08%
4,CCOC(=O)N1CCC(Nc2ccc(F)cc2)CC1,inactive: 0.05%
5,COc1ccc(NC2CCN(CCc3ccccc3)CC2)c(OC)c1,inactive: 0.49%
6,O=C(NCC1(N2CCCCC2)CCCCC1)c1ccc(F)cc1,inactive: 1.69%
7,CCCCOc1ccc(C(=O)NCC2(N3CCOCC3)CCCCC2)cc1,inactive: 2.85%
8,O=P1(N(CCCl)CCCl)SCCCS1,inactive: 0.56%
9,CCOc1ccc(C)cc1CN(CCCl)CCCl,inactive: 0.46%
10,O=C1CCN(Cc2ccccc2)CC1,inactive: -0.3%
11,CCOC(=O)N1CCC(Nc2ccc(OC)cc2)CC1,inactive: -1.16%
12,COc1ccc(Cl)cc1C(=O)NCC1(N2CCOCC2)CCCCC1,inactive: -0.76%
13,O=C(OC1CN2CCC1CC2)C1c2ccccc2Oc2ccccc21 (stereo not given),inactive: -3.1%
14,O=C(NCC1(N2CCCCC2)CCCCC1)c1ccc(Cl)s1,inactive: 1.66%
15,N#CC1(Nc2ccccc2)CCN(Cc2ccccc2)CC1,inactive: 1.55%
16,O=C(NCC1(N2CCOCC2)CCCCC1)c1cc2ccccc2o1,inactive: 0.84%
17,Cc1cc(C)cc(N(C(=O)c2ccccc2)C2CCN(C(=O)OC(C)(C)C)CC2)c1,inactive: -3.05%
18,O=C(NCC1(N2CCCCC2)CCCCC1)c1ccc(Cl)nc1,inactive: -0.83%
19,Cc1cccc(NC2(C#N)CCN(Cc3ccccc3)CC2)c1,inactive: -1.28%
20,CSc1ccccc1C(=O)NCC1(N2CCCCC2)CCCCC1,inactive: 1.12%
21,O=C(NCC1(N2CCCCC2)CCCCC1)c1cccs1,inactive: 0.4%
22,O=C(NCC1(N2CCCCC2)CCCCC1)c1ccc(=O)[nH]c1,inactive: -2.57%
23,COc1ccc(C(=O)NCC2(N3CCCCC3)CCCCC2)c(OC)c1OC,inactive: 1.14%
24,CC(C)(C)OC(=O)N1CCC(N(C(=O)c2ccccc2)c2ccc(F)cc2)CC1,inactive: 0.78%
25,COc1ccc(C(=O)NCC2(N3CCCCC3)CCCCC2)cc1,inactive: 0.44%
